# Reference: BindingDB's records for doi:10.1016/S1074-5521(01)00067-9 (University of California San Francisco, 2001)
# Protein sequences, listed by entry. Tags and fused reporters are not part of them. Lines headed by an entry give the natural chain unless they say otherwise; changes in a name come on top.
# UniProt P0A884: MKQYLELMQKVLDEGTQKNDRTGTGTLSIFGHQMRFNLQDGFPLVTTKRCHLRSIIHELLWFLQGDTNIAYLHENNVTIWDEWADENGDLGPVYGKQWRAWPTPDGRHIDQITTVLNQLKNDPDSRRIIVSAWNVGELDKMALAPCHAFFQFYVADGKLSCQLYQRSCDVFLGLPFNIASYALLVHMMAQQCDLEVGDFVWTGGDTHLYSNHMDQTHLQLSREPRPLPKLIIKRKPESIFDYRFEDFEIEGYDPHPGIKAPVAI
# Molecular target: Thymidylate synthase (Escherichia coli (strain K12), UniProt P0A884)
# Assay: Inhibition Assay
# Source text: Affinity assay of specificities of thymidylate synthase (TS)inhibitors
smiles,measurement,value
"CN(C)c1cccc2c(S(=O)(=O)N[C@@H](Cc3ccc(OS(=O)(=O)c4cccc5c(N(C)C)cccc45)cc3)C(=O)O)cccc12 [Dansyl derivative, DDT, 1L]",IC50,5 µM
